According to ChEMBL document CHEMBL5223103, “FLT3 inhibitors for acute myeloid leukemia: successes, defeats, and emerging paradigms” (RSC Med Chem, 2022):

Columns and labels:
[1] = target: T1, Receptor-type tyrosine-protein kinase FLT3 (Homo sapiens, UniProt P36888); assay: Inhibition of human FLT3
[2] = target: T1, Receptor-type tyrosine-protein kinase FLT3; assay: Inhibition of FLT3 mutant (unknown origin)
[3] = target: Receptor-type tyrosine-protein kinase FLT3 (Homo sapiens, UniProt P36888, D835Y); assay: Inhibition of FLT3 D835Y mutant (unknown origin)

C1=C/COCc2cc(ccc2OCCN2CCCC2)Nc2nccc(n2)-c2cccc(c2)COC/1 [PACRITINIB]
IC50 [1]: 6.4 nM | IC50 [2]: 12 nM | IC50 [3]: 18.3 nM
